Experimental data as given in patent publication US20070134261A1, “Effectors of innate immunity” (priority 2001, published 2007).

Key:
human PBMCs = assay: IL-6 and MCP-3 release from human PBMCs (ELISA, Example 15); assay type: cell-based; conditions: pre-incubation with inhibitor
whole human blood = assay: E. coli LPS induced IL-8 in whole human blood (ELISA); assay type: cell-based

| Molecule | MCP-3 production from combined LL-37 and IL-1β (human PBMCs) | LPS-induced production of IL-8 (whole human blood) |
| --- | --- | --- |
| oxidised ATP | partially blocked |  |
| CC[C@H](C)[C@H](N)C(=O)N[C@@H](CC(C)C)C(=O)N1CCC[C@H]1C(=O)N[C@@H](Cc1c[nH]c2ccccc12)C(=O)N[C@@H](CCCCN)C(=O)N[C@@H](Cc1c[nH]c2ccccc12)C(=O)N1CCC[C@H]1C(=O)N[C@@H](Cc1c[nH]c2ccccc12)C(=O)N[C@@H](Cc1c[nH]c2ccccc12)C(=O)N1CCC[C@H]1C(=O)N[C@@H](Cc1c[nH]c2ccccc12)C(=O)N[C@@H](CCCNC(=N)N)C(=O)N[C@@H](CCCNC(=N)N)C(N)=O [SEQ ID NO: 2] |  | inhibited |
